Measurements published in patent US11633495B2, “Compounds and compositions for immunotherapy” (priority 2014, dated 2023).

Columns and labels:
[1] = Body weight variations during and after therapy, PDX gastric tumor model; assay type: in vivo, BALB/c nu/nu nude mice; conditions: 10 mg/kg intravenously, weekly for 45 days, FIG. 4B
Description: (§1) For development of patient-derived gastric carcinoma xenograft (PDX) mouse models, female Balb/c nude mice (from SLAC, Shanghai, China) of 6-8 weeks old were used for tumor fragment implantation. Animals were fed with normal nude mice diet and housed in SPF animal facility in accordance with the Guide for Care and Use of Laboratory Animals and regulations of the Institutional Animal Care and Use Committee. Patent STO #69 gastric tumor fragments of about 15-30 mm^3 in size were implanted (s.c.) into right flanks of Balb/c nude mice.
(§2) Drugs were administered by i.v. route with 5-20 mg/kg of antibody or 20 mg/kg of Tarceva or reference drug, QWKx3. Tumors were measured once a week by caliper to determine its subcutaneous growth. Tumors were measured twice a week in two dimensions with calipers. Tumor volume was calculated using following formula: tumor volume=(length×width2)×0.5. Average tumor volumes or body weights were plotted using graph program Prism 5 (GraphPad). An endpoint for efficacy study was set at 30-45 days post-first treatment or when a tumor size reached above 2000 mm3, whichever came first. If a mouse lose more than 20% of body weight or is very sick and cannot get to adequate food or water, it will be removed from the study and euthanized. Tumors were collected from mice at the end point, half frozen in LN2 and half fixed in formalin for preparing FFPE tissues.

[2] = tested on: subcutaneous patient derived gastric tumor; assay: Therapeutic efficacy (survival) in PDX gastric tumor model; assay type: in vivo, BALB/c nu/nu nude mice; conditions: 10 mg/kg intravenously, weekly for a period of 45 days; mice bearing subcutaneous patient derived gastric tumor; FIG. 4C
Description: as §1, §2

| Substance | Body weight variations of the mice during and after therapy [1] | Survival curves of treatment and control groups [2] |
| --- | --- | --- |
| Trastuzumab: humanized monoclonal antibody that acts on human epidermal growth factor receptor extracellular domain of Her2 | No detectable weight loss | substantial prolongation |
| Trastuzumab MC-vc-TLRL | No detectable weight loss | substantial prolongation |
